Reference: PMC4120670 (Kidney International, 2014)

Experiments:
MATE1 [1] = biological target: T1, MATE1 (Homo sapiens, UniProt Q96FL8); experiment: Inhibition of MATE1 transport of tetraethylammonium; format: cell-based
T1 sequence (Q96FL8 1-570): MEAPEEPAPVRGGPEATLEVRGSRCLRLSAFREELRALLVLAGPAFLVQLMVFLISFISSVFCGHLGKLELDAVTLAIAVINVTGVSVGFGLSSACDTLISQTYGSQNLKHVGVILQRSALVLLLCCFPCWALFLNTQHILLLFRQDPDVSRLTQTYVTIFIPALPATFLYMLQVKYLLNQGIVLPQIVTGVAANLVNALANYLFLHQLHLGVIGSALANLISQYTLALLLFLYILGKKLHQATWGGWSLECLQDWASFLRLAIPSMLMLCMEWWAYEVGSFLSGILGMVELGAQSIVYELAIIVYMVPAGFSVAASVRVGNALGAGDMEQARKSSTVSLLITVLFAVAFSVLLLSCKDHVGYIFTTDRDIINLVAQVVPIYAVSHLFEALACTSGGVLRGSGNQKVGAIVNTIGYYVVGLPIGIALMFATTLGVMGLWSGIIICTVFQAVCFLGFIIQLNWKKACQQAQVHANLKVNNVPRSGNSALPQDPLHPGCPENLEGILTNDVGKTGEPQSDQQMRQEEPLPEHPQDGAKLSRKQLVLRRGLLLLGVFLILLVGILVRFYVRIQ

MATE1 [2] = biological target: T1, MATE1; experiment: Inhibition of MATE1-mediated creatinine transport; format: cell-based

IC50 (MATE1 [1]): 1460 ± 110 nM | IC50 (MATE1 [2]): 200 nM
SMILES: CN/C(=N/CCSCc1nc[nH]c1C)NC#N [Cimetidine, cimetidine]
